System: Raji cells
Test: Survival of SCID mice inoculated intraperitoneally with oligonucleotide 4-expressing or control Raji cells, with or without dexamethasone
Conditions: dexamethasone 15 mg/kg intraperitoneal everyday, label dexamethasone = Control Raji cells

For `C[C@@H]1C[C@H]2[C@@H]3CCC4=CC(=O)C=C[C@]4(C)[C@@]3(F)[C@@H](O)C[C@]2(C)[C@@]1(O)C(=O)CO` [dexamethasone, reference compound], the survival rate (Day 1) was 100%, the survival rate (Day 2) was 100% and the survival rate (Day 3) was 100%. For the same compound, the survival rate (Day 4) was 100%, the survival rate (Day 5) was 100% and the survival rate (Day 6) was 100%. The survival rate (Day 7) was 100%, the survival rate (Day 8) was 100% and the survival rate (Day 9) was 100%. The survival rate (Day 10) was 100%, the survival rate (Day 11) was 100% and the survival rate (Day 12) was 100%. It also gave a survival rate (Day 13) of 100%, a survival rate (Day 14) of 100% and a survival rate (Day 15) of 100%. It also gave a survival rate (Day 16) of 100%, a survival rate (Day 17) of 100% and a survival rate (Day 18) of 100%. For the same compound, the survival rate (Day 19) was 100%, the survival rate (Day 20) was 90% and the survival rate (Day 21) was 90%. For the same compound, the survival rate (Day 22) was 90%, the survival rate (Day 23) was 80% and the survival rate (Day 24) was 80%. The survival rate (Day 25) was 80%, the survival rate (Day 26) was 80% and the survival rate (Day 27) was 70%. It also gave a survival rate (Day 28) of 60%, a survival rate (Day 29) of 60% and a survival rate (Day 30) of 60%. For the same compound, the survival rate (Day 31) was 60%, the survival rate (Day 32) was 60% and the survival rate (Day 33) was 60%. For the same compound, the survival rate (Day 34) was 60%, the survival rate (Day 35) was 60% and the survival rate (Day 36) was 50%.

Reference: patent US9234200B2, “Oligonucleotide, glucocorticoid sensitivity enhancer, pharmaceutical composition, and expression vector” (National University Corporation Tokyo University of …, priority 2011, dated 2016)
